Data published in patent US20110237670A1, “IMPROVEMENT OF NORMAL COGNITIVE FUNCTION” (priority 2008, published 2011).

Assays:
[1] = system: humans; conditions: 6 g daily; cited from earlier work
[2] = system: Male NMRI mice; test: novel object recognition test (learning and memory formation); assay type: in vivo; conditions: 1000 mg/kg intraperitoneally, 90 min delay, p<0.05, FIG. 3A
Protocol: Male NMRI mice (Charles River, Germany, 25-35 g) were used in examples 1, 2 and 3. The animals were housed nine per cage in a colony room under constant temperature (20±1° C.) and humidity (50±5%). Animals were allowed to acclimatize for at least one week prior to behavioral testing. The daylight cycle was maintained artificially (lights on from 0600 to 1800 hours) and behavioral experiments were conducted during the light phase. The Ethics Committee for Animal Experiments, Goteborg, Sweden, approved all experimental procedures used in the present study.
There are several learning and memory tasks that are appropriate for study in rodents. One widely used is the novel object recognition test. The test involves exposing the rodent to two identical objects for a brief period of time (the introductory session). […] Furthermore, very similar aspects of memory formation (involving encoding, con solidation and retrieval of information) can be assessed in human using the Brief Visual Memory Task-Revised (BVMT-R). […]
The object exploration time was manually scored from the videotapes. […]
Data are expressed as means and standard errors of the mean (S.E.M.). […]
A discrimination index was calculated for each animal: Tn/(Tf+Tn)*100 […]

NCCCC[C@H](N)C(=O)O [L-lysine]
safety of long-term addition to the daily diet [1]: regarded to be safe
discrimination index during the recognition session versus saline [2]: significantly more time exploring the novel object
